The numbers were not newly measured in patent publication US20070248547A1, “CASCADE MACROMOLECULAR CONTRAST AGENTS FOR MEDICAL IMAGING” (THE REGENTS OF THE UNIVERSITY OF CALIFORNIA, priority 2006, published 2007), which cites them from elsewhere.

The conditions of the series: in vivo, 864 h.

Turning to Albumin-(Gd-DTPA), the “remained in the body” value is given as 13%.
